Values of other authors, collected in patent publication US20230067811A1, “MODULATING LYMPHATIC VESSELS IN NEUROLOGICAL DISEASE” (University of Virginia Patent Foundation, priority 2020, published 2023).
Read-outs that look alike come from different tables or passages of the source.

Test system: AD patients
Conditions: highest dose (10 mg/kg), cited from earlier work

## Aducanumab: anti-Aβ monoclonal antibody
EMERGE cohort
  cognitive decline: significantly reduced
ENGAGE cohort
  cognitive decline: not in the ENGAGE cohort
